Data reported in patent US9597402B2, “Sustained release small molecule drug formulation” (DURECT CORPORATION, priority 2005, dated 2017).
Converted amounts (≈) assume the structure as drawn.

What was measured:
physchem = conditions: organic solvent or mixture
Source text: (§1) In one embodiment, a small molecule drug formulation includes a small molecule psychotherapeutic drug, such as a small molecule antipsychotic, dopamine receptor agonist, dopamine receptor antagonist, serotonin receptor agonist, serotonin receptor antagonist, and serotonin uptake inhibitor drug. […] R209130-base has the molecular formula C19H20FNO. R209130-mandelic acid salt (R209130) has the molecular formula C19H20FNO.C8H8O3. R209130-tartaric acid salt (R167154) has the molecular formula C19H20FNO.C4H6O6.

LogP (C8OH/pH 7 buffer) = format: physicochemical; conditions: octanol/pH 7 buffer
Source text: as §1

Compound: Cc1nc2n(c(=O)c1CCN1CCC(c3noc4cc(F)ccc34)CC1)CCCC2 [Risperidone base, Risperidone]
- solubility (physchem): 407 mg/mL (≈ 991 mM)
- logP (LogP (C8OH/pH 7 buffer)): 3.04
